Source: patent publication US7947736B2, “Oligomeric compounds” (BTG International Limited, priority 2004, dated 2011)

Test: Ketogenic activity after oral administration: plasma β-hydroxybutyrate in rats (Ranbut assay)
Conditions: 300 mg/kg po

Q: Which “oral bioavailability” value does the source give for “1-3 butandiol, di-(tri(R)-3-hydroxybutyrate)ester [KTX 0203]” here?
A: The value was “orally bioavailable”.

Q: And the “time at which the maximum increase of plasma β-hydroxybutyrate was observed” value?
A: The value was 30 min.

Q: And the “time by which plasma β-hydroxybutyrate returned to control values”?
A: Its value is ≤ 2 h.
